A549 viability: A549 cytotoxicity, counter-screen for Nrf2 inhibitors; actives 0.16% (n = 390,000); A549 ARE-Fluc cells, CellTiter-Fluor viability, 18-24 h; Potency, µM (top dose mostly 46 µM), inactives show top-dose activity change, negative = cytotoxicity, most hits filed as inhibitors; AID 504648; note: potency is the fitted concentration of half-maximal effect; % is set by controls: 0 for no effect and ±100 for the full control effect
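A549 ARE_Fluc cells in 5% FBS OPTI-MEM were exposed to compounds in concentration-response for 18-24 h at 37 deg C. Viability was read by CellTiter-Fluor fluorescence (Ex 405/Em 525) after 30 min, before the luciferase read.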
miR-21 reporter: miR-21 reporter, rising signal; HeLa miR-21 FLuc reporter, luciferase, 48 h; Potency, µM (titrated, usually from 38.3 µM), without a hit: top-dose reporter change, positive = more light; AID 2288; 340,000 tested, under 10 active; active = well fitted rising curve with a large enough effect; inconclusive = small, poorly fitted or top-dose-only effect; inactive = no such curve, though single readings can be large or run the other way;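 further: % of control where 0% means no effect; miR-21 action dims this reporter so a rising signal means less miR-21 action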
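Compounds were titrated across several concentrations (up to approximately 40 uM) and incubated 48 hours with HeLa miR-21-FLuc reporter cells (miR-21 target sequence downstream of FLuc, endogenous miR-21). Readout was firefly luciferase luminescence after lytic detection reagent.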
p53 reactivation: restores transcriptional activity of mutant p53 | AID 504706 | Potency, µM (titrated, usually from 92.2 µM), for inactives: top-dose activity change, positive = activation, hits mostly activators | H1299 p53-A138V BP100-luciferase reporter, luminescence, 24 h | actives 0.063% (n = 320,000); note: potency is the fitted concentration of half-maximal effect; % of control where 0% means no effect; nearly all actives have a fitted effect of over 45% in size
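H1299 (p53-null), stable ts p53-A138V + BP100-Luc; 1000 cells/well, Opti-MEM/10% FBS; cpd 4 pt, 1:5; 24 h, 37 deg C, 5% CO2; detection reagent 10 min RT; luminescence.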
Nrf2 block: blocks Nrf2 signaling; actives 2.1% (n = 360,000); A549 ARE-Fluc reporter, luciferase luminescence, 18-24 h; Potency, µM (highest dose often 46 µM), for the others: at the highest dose activity change, negative = inhibition, actives largely listed as inhibitors; note: potency is the fitted concentration of half-maximal effect; % is set by controls: 0 for no effect and ±100 for the full control effect; nearly all actives have a fitted effect of over 60% in size
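A549 ARE_Fluc cells (5000/well, 5% FBS OPTI-MEM) pre-incubated 2 h, then treated with compounds 18-24 h at 37C/5% CO2 in concentration-response. CellTiter-Fluor viability read first; BugLite luciferase luminescence after 15 min at room temperature gives Nrf2 activity.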
ClpP mod: qHTS Assay for Activators of ClpP; Potency, µM (highest dose often 57.5 µM), for the others: top-dose activity change, negative = active; purified B. subtilis ClpP, FRET peptide cleavage, 20 min; ATP-dependent Clp protease proteolytic subunit (Bacillus subtilis (strain 168)), P80244; actives 1.9% (n = 340,000); active = well fitted falling curve with a large enough effect; inconclusive = small, poorly fitted or top-dose-only effect; inactive = no such curve, though single readings can be large or run the other way; note: potency is the fitted concentration of half-maximal effect; the source files actives as falling curves though it sought activators and does not explain the sign; nearly all actives have a fitted effect of over 65% in size
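ClpP 10 microg/mL final, pH 8 Tris/KCl buffer with BSA, glycerol, Tween-20; compound pinned in; FRET-FV substrate; RT 20 min; Ex320/Em430; ΔFRET vs ADEP 5.8 microM, DMSO, no enzyme.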
Nrf2 activator: activators of Nrf2 (ARE) signaling. AREc32 ARE-luciferase reporter (MCF7-derived line), luminescence, 24 h. Potency, µM (doses to about 46.1 µM), without a hit: at the top dose activation, most hits filed as activators. actives 0.31% (n = 410,000). AID 624171; note: potency is the fitted concentration of half-maximal effect; % of control where 0% means no effect; nearly all actives have a fitted effect of over 65% in size
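Cells of the AREc32 ARE-luciferase line are plated in OPTI-MEM containing 5% FBS and left overnight at 37 deg C. Compounds are pinned in, incubation continues 24 hr, and firefly luciferase signal is then measured.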
Starred values were filed as active, the others as inactive; ? = inconclusive; . = no result; [ ] = dose if it differs, or a comment. An excerpt weighted towards active compounds, which were near 3.7% of everything screened. Unless noted, calls come from the whole dose curve; as a rule, active = well fitted curve in the direction sought with a large enough effect; inconclusive = small, poorly fitted or top-dose-only effect, or another doubt; inactive = no such curve, though single readings can be large; an effect the other way counts as inactive or inconclusive.

SMILES	A549 viability	miR-21 reporter	p53 reactivation	Nrf2 block	ClpP mod	Nrf2 activator
c1ccc(Cc2nnc(N3CCCCC3)c3ccccc23)cc1	?	-10%	-4%	18µM*	.	2%
c1ccc(Cc2nnc(N3CCOCC3)c3ccccc23)cc1	15%	-13%	-3%	1%	1%	0%
C=Cc1ccc(CN2C(=O)N(c3ccc(C)c(C)c3)S(=O)(=O)c3ccccc32)cc1	1%	10%	.	.	1%	0%
CCOC(=O)c1cc(-c2ccc(OC)cc2F)nc2c1c(C)nn2CCC#N	0%	-3%	5%	?	25µM*	0%
CCOC(=O)c1cc(-c2ccc3c(c2)OCCO3)nc2c1c(C)nn2CCC#N	-1%	-9%	-17%	21µM*	?	0%
Cc1cc(C(F)(F)F)c2c(C)nn(-c3ccccc3)c2n1	2%	.	.	-6%	28µM*	0%
Cc1nn(CCC#N)c2nc(-c3ccccc3)cc(C(F)(F)F)c12	-5%	0%	6%	6%	32µM*	0%
CCOC(=O)c1cc(-c2ccco2)nc2c1c(C)nn2CCC#N	-3%	0%	-10%	.	?	?
CC(C)(C)OC(=O)NC(Cc1ccccc1)C(O)c1ccco1 (stereo not given)	-2%	.	.	15%	.	.
COc1ccc(-n2cc(-c3ccccc3)nc2SCC(=O)Nc2ccccc2)cc1Cl	5%	11%	.	.	2%	-1%
COc1ccccc1N1CCN(S(=O)(=O)c2c(C)nc3sc(C)c(C)n3c2=O)CC1	9%	0%	.	-17%	-23%	1%
O=C(OCc1cc(=O)n2nc(-c3cccs3)sc2n1)c1ccccc1Br	-6%	-11%	.	?	-15%	11%
CCOC(=O)c1cc(-c2ccc(Cl)cc2)nc2c1c(C)nn2CCC#N	-5%	-4%	-6%	?	35µM*	2%
Cc1cc(C(F)(F)F)c2c(C)nn(CCc3nn[nH]n3)c2n1	-2%	0%	-4%	0%	18µM*	0%
Cc1nn(CCc2nn[nH]n2)c2nc(-c3ccccc3)cc(C(F)(F)F)c12	0%	-11%	3%	?	3%	-1%
O=c1c2[nH]c3ccccc3c2ncn1Cc1ccco1	-6%	-8%	-3%	4%	?	9%
COc1ccc2[nH]c3c(NCCN(C(C)C)C(C)C)ncnc3c2c1	13%	-17%	1%	-4%	18µM*	4%
C1=C(CCNc2ncnc3c2[nH]c2ccccc23)CCCC1	-3%	13%	2%	5.2µM*	?	0%
CC(C)OCCCNc1ncnc2c1[nH]c1ccccc12	-22%	5%	-12%	12µM*	18µM*	3%
CCOc1ccc2[nH]c3c(NCCN(CC)CC)ncnc3c2c1	6%	-23%	1%	?	1%	4%
c1coc(CNc2ncnc3c2[nH]c2ccccc23)c1	-3%	.	.	16µM*	5%	.
COc1ccc(-c2[nH]nc3nc(-c4cc(Br)ccc4OC)cc(C(=O)O)c23)cc1	16%	-3%	.	?	-5%	13%
O=C(NCc1ccco1)c1ccc2c(c1)N(Cc1ccc(F)cc1)C(=O)c1ccccc1S2(=O)=O	-14%	13%	.	?	0%	7%
CCc1cc2c(NCc3ccco3)ncnc2s1	7%	1%	-14%	?	-4%	3.5µM*
Cc1ccc2[nH]c3c(NCc4ccccc4)ncnc3c2c1	18µM*	3%	0%	5.2µM*	3%	4%
CCc1cccc2c(C(O)c3c[nH]c4ccccc34)c[nH]c12 (stereo not given)	.	.	.	.	-18%	.
CCOc1ccc(-n2ccnc2SCC(=O)Nc2cccc3ccccc23)cc1	7%	4%	.	.	-1%	0%
CC1=CC(C)(C)NC(=S)N1CCO	2%	.	.	6%	.	0%
O=C(/C=C/c1ccoc1)c1ccccc1O	0%	-13%	?	?	2%	0%
COc1ccc2ccccc2c1C(=O)/C=C\c1ccoc1	-3%	-22%	0%	11%	1%	13µM*
Cc1ccc(C)c(N2CCN(c3nccn4nc(-c5ccc(Br)cc5)cc34)CC2)c1	-4%	-6%	.	15%	-1%	1%
N#CC1=C(O)C(c2ccccc2)n2c1nc(=O)c1ccccc12 (stereo not given)	-12%	-4%	?	0%	18µM*	0%
Cn1ncc2c(O/N=C(\N)c3ccc(C(F)(F)F)cc3)ncnc21	?	?	-14%	18µM*	-2%	-4%
CCc1ccc2oc(-c3cc(NC(=O)c4cc(OC)c(OC)c(OC)c4)ccc3O)nc2c1	-6%	-15%	.	4%	1%	4%
CCc1ccc2oc(-c3cc(N=Cc4cccc(OC)c4O)ccc3O)nc2c1	-11%	-72%	13%	?	-1%	10µM*
N/C(=N\OC(=O)c1ccc(=O)n(Cc2ccccc2)c1)c1ccccn1	-13%	-5%	0%	?	28µM*	10%
CCOC(=O)c1cc(CC)sc1NC(=O)CN1CCN(C(=O)c2ccco2)CC1	?	-7%	-12%	21µM*	-9%	4%
CCOC(=O)c1cc(C)sc1NC(=O)CN1CCN(C(=O)c2ccco2)CC1	-7%	-5%	-4%	-19%	-7%	0%
COc1ccc(C(=O)Nc2ccc(S(=O)(=O)N3CCc4ccccc43)cc2)cc1	-10%	.	.	15µM*	-3%	3%
O=S(=O)(NC1CC1)c1ccc(S(=O)(=O)N2CCCc3ccccc32)cc1	-16%	14%	4%	23µM*	-1%	0%

Four compounds from above, showing only miR-21 reporter, ClpP mod and A549 viability.
canonical_smiles | miR-21 reporter | ClpP mod | A549 viability
Cc1nn(CCc2nn[nH]n2)c2nc(-c3ccccc3)cc(C(F)(F)F)c12 | -11% | 3% | 0%
O=c1c2[nH]c3ccccc3c2ncn1Cc1ccco1 | -8% | ? | -6%
COc1ccc2[nH]c3c(NCCN(C(C)C)C(C)C)ncnc3c2c1 | -17% | 18µM* | 13%
C1=C(CCNc2ncnc3c2[nH]c2ccccc23)CCCC1 | 13% | ? | -3%

(more compounds)
SMILES	A549 viability	miR-21 reporter	p53 reactivation	Nrf2 block	ClpP mod	Nrf2 activator
COc1ccc(N(C)C(=O)c2cc(S(=O)(=O)N3CCc4ccccc43)cn2C)c(OC)c1	?	0%	.	18µM*	0%	0%
Cn1cc(S(=O)(=O)N2CCc3ccccc32)cc1C(=O)Nc1ccc(Cl)cc1	-16%	13%	11%	8.2µM*	?	3%
Cc1ccc(NC(=O)c2cc(S(=O)(=O)N3CCc4ccccc43)cn2C)cc1	1%	-1%	.	?	-13%	0%
N#CN1CCC(N[S+](=O)([O-])c2cccc(F)c2)CC1	1%	.	.	12%	.	.
CCN(c1ccccc1)S(=O)(=O)c1c(C)noc1C	-2%	.	3%	0%	-3%	-1%
COc1ccccc1/C=c1/[nH]c(=O)/c(=C\c2ccccc2OC)[nH]c1=O	.	.	.	.	-1%	.
CCOc1ccc(-n2c(SCC(=O)Nc3ccc(CC)cc3)nc3c(oc4ccccc43)c2=O)cc1	1%	4%	.	-12%[9.27 µM]	-1%	-1%

As a working copy, part of the list above.
SMILES	A549 viability	miR-21 reporter	p53 reactivation	Nrf2 block	ClpP mod	Nrf2 activator
COc1ccc(N(C)C(=O)c2cc(S(=O)(=O)N3CCc4ccccc43)cn2C)c(OC)c1	?	0%	.	18µM*	0%	0%
Cn1cc(S(=O)(=O)N2CCc3ccccc32)cc1C(=O)Nc1ccc(Cl)cc1	-16%	13%	11%	8.2µM*	?	3%

Random excerpt: two entries already listed.
SMILES	A549 viability	miR-21 reporter	p53 reactivation	Nrf2 block	ClpP mod	Nrf2 activator
Cc1ccc(NC(=O)c2cc(S(=O)(=O)N3CCc4ccccc43)cn2C)cc1	1%	-1%	.	?	-13%	0%
COc1ccc(N(C)C(=O)c2cc(S(=O)(=O)N3CCc4ccccc43)cn2C)c(OC)c1	?	0%	.	18µM*	0%	0%
